Test results from US20210269549A1, “ANTI-SAS1B ANTIBODIES, ASSOCIATED METHODS OF USE, AND COMPOSITIONS AND METHODS FOR DETECTING AND TREATING CANCER” (UNIVERSITY OF VIRGINIA PATENT FOUNDATION, priority 2015, published 2021).

Assays:
Assay type in all cases: cell-based
[1] = tested on: M1 (renal cancer cell line); experiment: Live cell surface indirect immunofluorescence, M1; conditions: live cells on ice; two cancer cell lines (M1, MMMT539)
Method: Anti-Human SAS1B mouse monoclonal antibodies reactive to SAS1B epitope on live cancer cell surfaces were identified by indirect immuno-fluorescence (IF) for the development of therapeutic antibodies. M1 (renal cancer cell line) and MMMT539 (uterine cancer cell line) cells were seeded at 20,000 cells in 1 ml per well on collagen coated coverslips in 24 well plates. The media was replaced 22 h post seeding. For antibody probing, cells were kept on ice for ˜8 to 18 min following 47 h post-seeding. The first antibody was added at 10 ug/ml, 20 ug/ml or 50 ug/ml in complete culture media with 15 mM NaN3 (pre-chilled), incubated on ice for 60 min, and the cells washed in complete culture media with 15 mM NaN3 in cold 1 ml, ×3. The second antibody, goat-antimouse-AF488 (pre-chilled), was added to the wells at 5 ug/ml in complete culture media with 15 mM NaN3 for 60 min on ice. The cells were washed in complete media with 15 mM NaN3, 1 ml, ×3 on ice. The cells were fixed in 4% PFA in PBS for 20 minutes on ice. The cells were washed in distilled water at RT, 1 ml, ×1 and mounted in 8 ul of SLOWFADE® Diamond Antifade Mountant with DAPI. An anti-EGFR monoclonal antibody was used as a positive control on live M1 cells. Epidermal growth factor receptor (EGFR) is a transmembrane glycoprotein and member of protein kinase superfamily. […]

[2] = tested on: human uterine cancer cells (MMMT539); experiment: Antibody drug conjugate cytotoxicity (ADC) assay, MMMT539; conditions: FIG. 3A-B
Method: The cytotoxic effect of anti-human SAS1B mAbs SB2 and SB5 on human uterine cancer cells (MMMT539) was examined by antibody drug conjugate cytotoxicity (ADC) assay. Human uterine cancer cells MMMT539 were seeded in triplicate on 96 well plate overnight and then treated with SB2 or SB5 and anti-mouse Fab-cleavable-Duocarmycin complex for ˜90 h. The presence of viable live cells per well was measured by total cellular ATP content in relative luminescence unit (RLU). Viability of control live cells (100%) was determined from average of 9 wells in terms of total cellular ATP (in RLU) containing the constant 15 nM Fab-CL-DMDM for each set of antibody/reagent. […] Staurosporine, a general protein kinase inhibitor, was used to induce apoptosis in 1% DMSO as a positive control for the assay.

renal carcinoma cells = experiment: ADC assay on renal carcinoma cells; conditions: 0.01 nM mAb, 15 nM Fab-DMDM, 4 days
Method: The cytotoxic effect of anti-EGFR (AY13), anti-SAS1B (SB2) and anti-CABYR (3A4) monoclonal antibodies on renal carcinoma cells were tested by ADC assay. An average of 3 experiments in triplicate is reported.

[3] = tested on: renal cell carcinoma cell line (M1); experiment: Morphology of renal cell carcinoma cell line (M1) after 93 h of antibody drug treatment
Method: The morphology of renal cell carcinoma cell line (M1) after 93 h of anti-EGFR antibody drug treatment was examined.

anti-EGFR mAb: anti-EGFR (AY13) monoclonal antibody used as a positive control [reference compound]
Surface labelling of live cancer cells [1]: confirmed the EGFR expression on the cell surface
Cell killing [2]: killed the cancer cells in a dose dependent manner
Viability (renal carcinoma cells): 20%
Cell killing and inhibition of cell proliferation (morphology) ([3]; 0.1 nM mAb with 15 nM Fab-DMDM): the numbers of unrounded live cells were very few
Cell killing and inhibition of cell proliferation (morphology) ([3]; 1 nM mAb with 15 nM Fab-DMDM): clear cell killing and inhibition of cell proliferation properties
